Calls of active or inactive are those of the source. The rule behind the calls is not given here.
Molecular target: G-protein coupled receptor 151 (Homo sapiens) (UniProt Q8TDV0)
Assay: GPR151 activator potency, dose response, cell-based (AID 1508610)
Conditions: cell-based GPR151 activation reporter

Sequences of proteins named here, by UniProt entry; tags and fusion partners are left off.
UniProt Q8TDV0, whole entry: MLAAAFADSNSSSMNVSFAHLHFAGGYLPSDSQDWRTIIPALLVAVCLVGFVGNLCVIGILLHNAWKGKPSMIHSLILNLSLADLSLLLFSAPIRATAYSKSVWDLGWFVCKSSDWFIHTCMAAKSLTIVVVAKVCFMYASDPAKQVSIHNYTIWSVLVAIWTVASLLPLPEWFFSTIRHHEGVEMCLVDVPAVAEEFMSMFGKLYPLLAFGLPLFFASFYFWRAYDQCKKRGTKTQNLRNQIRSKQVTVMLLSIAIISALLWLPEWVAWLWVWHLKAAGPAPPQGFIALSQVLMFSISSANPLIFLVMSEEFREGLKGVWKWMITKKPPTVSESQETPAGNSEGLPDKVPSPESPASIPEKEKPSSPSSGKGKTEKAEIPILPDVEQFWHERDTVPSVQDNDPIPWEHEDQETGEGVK

Structure (SMILES): CCCN1CCC(Nc2ccc(Cl)cc2)CC1
- EC50: inactive: > 28 µM
